Measurements from PubChem BioAssay AID652257 (The Scripps Research Institute Molecular Screening Center, 2013).
Only a part is listed here, and it is no random draw. Activity calls are given as the source filed them.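 How the source made its calls: active means inhibition above about 21% made by adding two undisclosed values (limit read from the data); inactive means the rest.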

Sequences of proteins named here, by UniProt entry; tags and fusion partners are left off.
UniProt Q99873, whole entry, looked up: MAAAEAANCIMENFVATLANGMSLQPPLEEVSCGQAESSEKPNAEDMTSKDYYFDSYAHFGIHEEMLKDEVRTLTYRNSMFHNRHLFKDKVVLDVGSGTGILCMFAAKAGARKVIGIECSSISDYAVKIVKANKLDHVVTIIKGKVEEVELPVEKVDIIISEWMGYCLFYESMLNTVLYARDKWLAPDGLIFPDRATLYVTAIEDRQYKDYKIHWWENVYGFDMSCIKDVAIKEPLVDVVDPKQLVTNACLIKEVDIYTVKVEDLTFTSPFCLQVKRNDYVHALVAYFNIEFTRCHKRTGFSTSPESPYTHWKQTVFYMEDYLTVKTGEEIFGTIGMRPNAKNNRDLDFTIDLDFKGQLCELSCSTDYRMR

Target: Protein arginine N-methyltransferase 1 (Homo sapiens) (UniProt Q99873)
Assay: human PRMT1 activity-probe blockers – biochemical, fluorescence polarization, primary screen (AID 652257)
Conditions: recombinant PRMT1, activity-based probe fluorescence polarization; at 2.79 µM; hits give high values

Row | SMILES | inhibition
1 | c1ccc(-c2nn[nH]n2)c(-c2nn[nH]n2)c1 | inactive: -1.01%
2 | O=C(NC1CCS(=O)(=O)C1)NP(=S)(Oc1ccccc1)Oc1ccccc1 (stereo not given) | inactive: 1.84%
3 | CCNC(=S)/N=C(\N)N[N+](=O)[O-] | inactive: -3.08%
4 | O=P1(N(CCCl)CCCl)OCCC2CCCCN21 (stereo not given) | inactive: -1.03%
5 | CCC(=O)N1C2C3N(C(=O)CC)C1C1N(C(=O)CC)C(C(N1C(=O)CC)N3C(=O)CC)N2C(=O)CC | inactive: 1.28%
6 | O=C(OC1CN2CCC1CC2)c1ccccc1 (stereo not given) | inactive: 1.4%
7 | CC(=O)NC(SC(=S)N(CC(C)C)CC(C)C)C(Cl)(Cl)Cl (stereo not given) | inactive: -0.1%
8 | Cc1ccc(OP(=O)(Nc2ccccn2)Oc2ccc(C)cc2)cc1 | inactive: 0.91%
9 | COC(=O)c1cc2c(s1)N=C(c1ccccc1)N(C)P2(=O)N1CCOCC1 (stereo not given) | inactive: -4.56%
10 | CN(C)C(=O)Oc1noc2ccccc12 | inactive: -1.93%
11 | O=c1c2cc([N+](=O)[O-])ccc2[nH]c2c([N+](=O)[O-])cc([N+](=O)[O-])cc12 | inactive: 0.4%
12 | Cc1ccccc1OP(=O)(Nc1ccccn1)Oc1ccccc1C | inactive: 7.52%
13 | CC(NC(=O)COC(=O)C(O)(c1ccccc1)c1ccccc1)c1ccccc1 (stereo not given) | inactive: -1.74%
14 | CN(C)P(=O)(N(C)C)n1c(Nc2ccccc2)nnc1-c1ccccc1 | inactive: 1.19%
15 | O=P(Nc1nc2ccc(Cl)cc2s1)(c1ccccc1)c1ccccc1 | inactive: -2.25%
16 | CCCC1OP(N)(=O)OCC1CC (stereo not given) | inactive: -4.08%
17 | O=C(O)c1ccccc1[As](=O)(O)O | inactive: -1.44%
18 | CC(=O)Nc1ccc([As](=O)(O)O)cc1 | inactive: 1.99%
19 | CCn1c(=O)n(C2CCN(CC3CCCCCCC3)C[C@H]2CO)c2ccccc21 (stereo not given in full) | inactive: -5.09%
20 | CN(C(=O)Cc1ccc(Cl)c(Cl)c1)[C@H]1CCCC[C@@H]1N1CCCC1 | inactive: 3.87%
21 | Cc1ccc(NP(=O)(Oc2ccccc2F)Oc2ccccc2F)nc1 | inactive: -3.48%
22 | CCOP(=O)(Nc1ccccc1)OCC | inactive: -0.18%

Row | SMILES | inhibition
23 | Cc1cc(SC(NC(=O)c2ccc(F)cc2)C(Cl)(Cl)Cl)ncn1 (stereo not given) | active: 67.6%
24 | Nc1cccc2ccc([As](=O)(O)O)cc12 | inactive: 5.7%
25 | CCN(N=Nc1nonc1N)c1nonc1N | inactive: -1.79%
26 | CN(C(=O)Cc1ccccc1)C1CC[C@@]2(CCCO2)C[C@@H]1N1CCCC1 (stereo not given in full) | inactive: -0.28%
27 | Cc1ccc(N/C(=N/P(=O)(N2CCOCC2)N2CCOCC2)N2CCOCC2)cc1 | inactive: -0.75%
28 | CN(C(=O)Cc1ccc(Cl)c(Cl)c1)[C@H]1CCCC[C@H]1N1CCCC1 | inactive: -10.4%
29 | NC(=O)c1cc([N+](=O)[O-])cc([N+](=O)[O-])c1N | inactive: -1.89%
30 | Clc1ccc(Cl)c(NC2=NCC(CBr)S2)c1 (stereo not given) | inactive: 9.12%
31 | CN1CCCC(OC(=O)C(c2ccccc2)c2ccccc2)C1 (stereo not given) | inactive: -1.67%
32 | Cc1ccc(OP(=O)(Nc2nccs2)Oc2ccc(C)cc2)cc1 | inactive: 3.9%
33 | COc1ccccc1OP(=O)(Nc1ccc(C)cn1)Oc1ccccc1OC | inactive: 4.24%
34 | O=C(NC(Sc1ccncn1)C(Cl)(Cl)Cl)c1ccccc1 (stereo not given) | active: 80.1%
35 | Oc1ccccc1CNc1ccccn1 | inactive: -2.12%
36 | CC(C)CC(=O)NC(Sc1ccc(Cl)cc1)C(Cl)(Cl)Cl (stereo not given) | inactive: -1.86%
37 | Nc1cc(N)c2nonc2c1[N+](=O)[O-] | inactive: -1.07%
38 | COc1ccc(C2=NCC(CBr)S2)cc1 (stereo not given) | active: 30.8%
39 | O=[N+]([O-])c1cc([N+](=O)[O-])c(CCNc2ccccc2)c([N+](=O)[O-])c1 | active: 22.9%
40 | CCc1nc2c(n1)c1c(non1O)c1c2no[n+]1[O-] | inactive: -1.27%
41 | Cc1ccc(NP(=O)(Oc2ccccc2)Oc2ccccc2)nc1 | inactive: -2.01%
42 | CC(=O)N1C2C3N(C(C)=O)C1C1N(C(C)=O)C(C(N1C(C)=O)N3C(C)=O)N2C(C)=O | inactive: -0.49%
43 | O=[N+]([O-])c1cccc2n[nH]nc12 | inactive: 0.61%
44 | CCN(/C(=N/P(=O)(N1CCOCC1)N1CCOCC1)N1CCOCC1)c1ccc(OC)cc1 | inactive: 2.78%

Row | SMILES | inhibition
45 | C[N+]1=C2C=CC=CC=C2SC12C([N+](=O)[O-])=CC([N+](=O)[O-])=C[C-]2[N+](=O)[O-] (stereo not given) | active: 60.7%
46 | Nc1ccc([As](=O)(O)c2ccc(N)cc2)cc1 | inactive: 3.48%
47 | c1cc(-c2nn[nH]n2)ccc1-c1nn[nH]n1 | inactive: 5.4%
48 | CC1CCN(C(=O)Oc2c(Cl)cc(Cl)c3cccnc23)CC1 | inactive: 1.25%
49 | CN(C)C(=O)OCCc1n(C)cc[n+]1C | inactive: 0.19%
50 | CC(C)=N/N=C(\N)N[N+](=O)[O-] | inactive: -2.32%
51 | CC(C)c1nc(Nc2ccccc2)n(P(=O)(N(C)C)N(C)C)n1 | inactive: -5.8%
52 | O=P1(N(CCCl)CCCl)OCCCS1 (stereo not given) | inactive: 2.26%
53 | O=C(Nc1cc([As](=O)(O)O)ccc1O)c1ccccc1 | inactive: 2.69%
54 | O=[N+]([O-])c1ncn(CCn2ncnc2[N+](=O)[O-])n1 | inactive: 4.34%
55 | CC(C)(C)C(=O)NC(Sc1ccncn1)C(Cl)(Cl)Cl (stereo not given) | active: 32.7%
56 | O=C(O)CNc1ccc([As](=O)(O)O)cc1 | inactive: 2%
57 | O=[N+]([O-])c1cccc(NC2=NCC(CBr)S2)c1 (stereo not given) | inactive: 15.5%
58 | COC(=O)C1(C)COP(=O)(Nc2ccccc2)OC1 (stereo not given) | inactive: 3.59%
59 | O=C(O)C(O)c1ccc(N(CCCl)CCCl)cc1 (stereo not given) | inactive: -1.36%
60 | CCOC(=O)Nc1ccc([As](=O)(O)O)c(O)c1 | inactive: -1.67%
61 | CC1CCNP(=O)(N(CCCl)CCCl)O1 (stereo not given) | inactive: -3.88%
62 | COP(=O)(OC)N1CC1c1ccccc1 (stereo not given) | inactive: -3.47%
63 | Cc1cc(SC(NC(=O)c2ccccc2)C(Cl)(Cl)Cl)nc(C(C)C)n1 (stereo not given) | active: 24.6%
64 | CCCCOc1ccc(C(=O)NCC2(N3CCCCC3)CCCCC2)cc1OC | inactive: -3.92%
65 | CCOC(=O)Nc1cccc([As](=O)(O)O)c1 | inactive: -0.64%
